# Assay results published in published antibiotic growth screens (doi:10.1038/s41589-023-01349-8).
# The list shows a part of the results.
# System: A. baumannii ATCC 17978
# Assay: relative growth (fraction of control); higher = less inhibition
# Details: 50 µM
row,SMILES,relative growth
1,CC(=O)Nc1ccc(S(=O)(=O)CCO)cc1,1.07
2,C[C@@H]1CN(C(=N)N)C[C@H](C)O1,0.87
3,COc1ccc(C#Cc2ccc3c(c2)[C@]2(C(=O)N3)[C@H](c3ccc(O)cc3)N3[C@H](c4ccccc4)[C@H](c4ccccc4)OC(=O)[C@H]3[C@@H]2C(=O)N2CCCCCCC2)cc1,0.973
4,C[C@@H]1CN([C@H](C)CO)S(=O)(=O)c2ccc(C#Cc3cccc(F)c3)cc2O[C@H]1CN(C)S(=O)(=O)c1ccccc1F,1.12
5,O=C(C[C@H]1CC[C@H]2[C@@H](COC[C@@H](O)CN2S(=O)(=O)c2ccc(Cl)cc2)O1)NCCN1CCCC1,1.08
6,O=C(CN1CCOCC1)NCC[C@H]1CC[C@@H](NC(=O)Cc2ccccn2)[C@@H](CO)O1,1.04
7,C[C@H](CO)N1C[C@H](C)[C@@H](CN(C)C(=O)Nc2ccc3c(c2)OCO3)Oc2cc(C#Cc3cccnc3)ccc2S1(=O)=O,1.02
8,C=CC[n+]1ccccc1/C=N/O,1.02
9,C[C@H]1CN([C@@H](C)CO)S(=O)(=O)c2ccc(C#CCN(C)C)cc2O[C@@H]1CN(C)C(=O)Nc1ccccc1F,1.03
10,CCN(Cc1ccncc1)C(=O)C(CO)c1ccccc1 (stereo not given),1.22
11,NNC(=O)c1cccc(C(=O)NO)c1,0.821
12,Cc1ccc(S(=O)(=O)N2CCN(CC(=O)N/N=C/c3ccccn3)CC2)cc1,0.707
13,COc1cccc(S(=O)(=O)N[C@@H]2C=C[C@@H](CC(=O)NC3CCC3)O[C@@H]2CO)c1,1.07
14,NNC(=O)CS(=O)(=O)c1ccc(C(F)(F)F)cn1,0.931
15,CS(=O)(=O)N1CCCCC1,1.12
16,COc1ccc2c3c(ccc2c1)-c1[nH]c2ccccc2c1CC3,0.971
17,COc1cccc(-c2ccc3c(c2)O[C@H](CN(C)Cc2cncnc2)[C@@H](C)CN([C@H](C)CO)S3(=O)=O)c1,0.913
18,COc1ccc(S(=O)(=O)N2C[C@H](O)COC[C@@H]3O[C@@H](CC(=O)NCc4ccc(Cl)c(Cl)c4)CC[C@H]32)cc1,0.791
19,Cc1nnc(NCCc2ccccc2)n(N)c1=O,0.885
20,Cc1ncc([N+](=O)[O-])n1CCO,0.917
21,C[C@@H]1CN([C@@H](C)CO)S(=O)(=O)c2ccc(C#Cc3ccncc3)cc2O[C@@H]1CN(C)S(=O)(=O)c1ccc(F)cc1,1.04
22,CN(C)c1ccsc1C(=O)NN,0.871
23,C[C@@H]1CN([C@@H](C)CO)C(=O)c2cc(C#CC3(O)CCCC3)cnc2O[C@@H]1CN(C)S(=O)(=O)c1ccc(F)cc1,0.965
24,CO[C@@H]1CN(C)C(=O)c2ccc(NC(=O)C3CC3)cc2OC[C@@H](C)N(C(=O)CN2CCOCC2)C[C@@H]1C,1.01
25,CC/C(=C\c1ccccc1)C(=O)O,1.02
26,Cl.Cl.Fc1ccc(C(c2ccc(F)cc2)N2CCN(C/C=C/c3ccccc3)CC2)cc1,1.13
27,CC(C)(CO)NC(=S)NC[C@H]1CCCO1,1.16
28,CC(=O)NCCCC[C@@H]1NC(=O)[C@@H]2C[C@H](C(=O)NCCCCCN)[C@H](c3ccc(O)cc3)N2C1=O,1.05

row,SMILES,relative growth
1,COc1ccc(COC[C@]23N=C4SCc5ccccc5CN4[C@H](c4ccccc4O2)[C@H]3COC(=O)NCCCCCC(=O)NO)cc1,0.89
2,COc1cccc(-c2cn(CC[C@@H]3CC[C@@H](NS(=O)(=O)c4ccccc4Cl)[C@H](CO)O3)nn2)c1,0.868
3,COc1cccc(S(=O)(=O)Nc2ccc3c(c2)[C@H]2C[C@@H](CC(=O)NCC(F)(F)F)O[C@@H](CO)[C@H]2O3)c1,1.15
4,O=C1CN(c2ccccc2)C(=O)N1,0.952
5,COCC#Cc1ccc2c(c1)O[C@H](CN(C)C(=O)c1ccccc1F)[C@@H](C)CN([C@@H](C)CO)S2(=O)=O,0.984
6,CC(C)C#Cc1ccc2c(c1)O[C@H](CN(C)C(=O)Cc1ccccn1)[C@H](C)CN([C@H](C)CO)S2(=O)=O,0.99
7,Cc1sc(/N=C/c2ccc(Cl)c(Cl)c2)c(C#N)c1C,0.925
8,Cl.Nc1ccc(/N=N/c2ccccc2)c(N)n1,0.958
9,CCC(=O)N[C@@H]1C=C[C@@H](CC(=O)OC)O[C@H]1CO,0.962
10,COc1ccc2[nH]cc(CCNC(C)=O)c2c1,0.897
11,O=C([O-])c1ccccc1O.[Na+],0.995
12,OCC(O)[C@@H](O)CO (stereo not given in full),0.9
13,CC(C)NC(=O)[C@@]1(C)c2ccccc2C(=O)N(Cc2cc(C(F)(F)F)cc(C(F)(F)F)c2)[C@H]1c1ccc(CO)cc1,0.807
14,Cn1cnc(S(=O)(=O)N2C[C@@H](O)COC[C@@H]3O[C@H](CC(=O)NCc4ccc(F)cc4)CC[C@H]32)c1,1.05
15,C=CCC[C@H](Cc1ccc(F)cc1)C(=O)OC[C@H](Cc1c[nH]c2ccccc12)NC(=O)[C@@H](CC=C)CC(=O)N[C@H](CO)Cc1ccccc1,0.879
16,C[C@H](O)[C@H](O)[C@@H](O)[C@@H](O)/C=N/NC(=O)CCCCCC(=O)NO,0.99
17,CO[C@H]1CN(C)C(=O)c2cc(NS(C)(=O)=O)ccc2OC[C@@H](C)N(C(=O)CN(C)C)C[C@H]1C,1.02
18,C[C@@H]1CN([C@H](C)CO)C(=O)CCCn2cc(nn2)CO[C@H]1CN(C)C(=O)Nc1cccc2ccccc12,1.02
19,COCCN1C[C@H](C(=O)O)CC1=O,1.04
20,CC(=O)N[C@@H](Cc1ccccc1)C(=O)O,0.844
21,NCCN1CCO[C@H](c2ccccc2)C1,1.04
22,CC(C)C1=CC2=CC[C@H]3[C@](C)(CO)CCC[C@]3(C)[C@@H]2CC1,0.968
23,Cc1ccc(S(=O)(=O)N[C@@H]2CC[C@H](CC(=O)NCc3ccc(Cl)c(Cl)c3)O[C@H]2CO)cc1,1.14
24,O=C1O[C@H](c2ccccc2)[C@H](c2ccccc2)N2[C@H]1[C@@H](C(=O)N1CCCCCCC1)[C@]1(C(=O)Nc3ccc(C#CC4=CCCCC4)cc31)[C@H]2c1ccc(O)cc1,1.02
25,O=C(C[C@H]1CC[C@H]2[C@@H](COC[C@@H](O)CN2C(=O)c2ccccc2F)O1)N1CCN(c2ccccc2)CC1,0.932
26,O=C(C[C@@H]1CC[C@@H]2[C@H](COC[C@H](O)CN2S(=O)(=O)c2ccc(Oc3ccccc3)cc2)O1)NCCN1CCCCC1,1.09
27,CN(C)c1ccc(C(=C2C=CC(=[N+](C)C)C=C2)c2ccc(N(C)C)cc2)cc1.[Cl-],4.28
